The record followed here is patent publication US9079866B2, “Flap modulators” (JANSSEN PHARMACEUTICA NV, priority 2013, dated 2015).

By UniProt entry, the sequences of proteins in these tests, tags left out. Where a name states a change or a piece, a line headed by the entry shows the natural chain unless it says otherwise.
UniProt P20292: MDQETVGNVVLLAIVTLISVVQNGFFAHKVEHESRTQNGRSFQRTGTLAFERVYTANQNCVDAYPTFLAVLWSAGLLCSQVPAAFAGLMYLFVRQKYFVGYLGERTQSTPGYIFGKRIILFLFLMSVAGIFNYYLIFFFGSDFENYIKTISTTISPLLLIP

In experiment [1] the test system is leukotriene pathway in human whole blood (LTB4 levels). Description: Human whole blood assay (A23187-stimulated LTB4). The class given is cell-based. The note with it: read-out: LTB4 IC50 1:1. The method, then: (§1) The ability of the compounds of the present invention to treat a FLAP-mediated disease and/or disorder, or associated symptoms or complications thereof, was determined using the following procedures. Binding assay data represent the average value obtained from two different assay plates, with samples run in duplicate on each plate. Human whole blood assay data represent a single replicate on an assay plate using whole blood from at least one healthy donor.
An in vitro cellular assay was performed using human whole blood collected in heparin-containing tubes, which was used to test the ability of compounds to modulate the leukotriene pathway in human whole blood. The blood was diluted 1:1 in RPMI medium, pre-incubated for 15 min at 37° Celsius with test compounds at various concentrations, and then stimulated with calcium ionophore, A23187 (7 μg/mL), for 30 min at 37° Celsius. The samples were then centrifuged and plasma was removed. The plasma was diluted in assay buffer and LTB4 levels were measured using a commercial kit (Enzo Life Sciences). The concentration of each compound that was required for half-maximal inhibition (modulation) of recombinant enzyme activity (IC50) was calculated by a 4-parameter equation using the program GraphPad Prism (GraphPad software).

A further experiment addresses human FLAP (Homo sapiens (Human), UniProt P20292). Kind of experiment: FLAP binding assay (HTRF format). How it is done:
as §1
Data are expressed as a HTRF ratio.

Where [2] appears, read: read-out: FLAP Binding wild type HTRF Ki.
Setting [3] is: human FLAP wild type, HTRF format, average of two plates, duplicates.

Where two headings read alike, the source gives them in different places. A value given as a limit tells only on which side of the number the result lay.

As to `C[C@@H](CC#N)NS(=O)(=O)c1ccccc1-c1ccc(-c2cnc(N)cn2)c(F)c1` [Example 171, (S)-4′-(5-Aminopyrazin-2-yl)-N-(1-cyanopropan-2-yl)-3′-fluoro-[1,1′-biphenyl]-2-sulfonamide], in experiment [1], the IC50 is 13 nM. In addition, the Ki on human FLAP (setting [2]) worked out at 2 nM.
As to `CC(CO)NS(=O)(=O)c1ccccc1-c1ccc(-c2cnc(N)cn2)c(F)c1` (stereo in doubt) [Example 32, 4′-(5-Aminopyrazin-2-yl)-3′-fluoro-N-[(1S)-2-hydroxy-1-methylethyl]biphenyl-2-sulfonamide], the affinity on human FLAP (setting [3]) corresponds to a Ki of 8 nM.
In turn, `Nc1ncc(-c2ccc(-c3ccccc3O[C@@H]3CCCNC3)cc2F)cn1` [Example 633, 5-{3-Fluoro-2′-[(3R)-piperidin-3-yloxy]biphenyl-4-yl}pyrimidin-2-amine] yielded a Ki on human FLAP (wild type FLAP, HTRF format) greater than 10000 nM.
`Nc1cnc(-c2ccc(-c3ccccc3S(=O)(=O)N3CC[C@H](N)C3)cc2F)cn1` [Example 93, (S)-5-(2′-((3-Aminopyrrolidin-1-yl)sulfonyl)-3-fluoro-[1,1′-biphenyl]-4-yl)pyrazin-2-amine] registered a Ki at human FLAP (setting [3]) of 127 nM.
Turning to `Nc1cnc(-c2ccc(-c3ccccc3O[C@H]3CCCNC3)cc2F)cn1` [Example 634, 5-{3-Fluoro-2′-[(3S)-piperidin-3-yloxy]biphenyl-4-yl}pyrazin-2-amine], at human FLAP (wild type FLAP, HTRF format), the Ki amounted to 311 nM.
Consider `C[C@H](CC#N)NS(=O)(=O)c1ccccc1-c1ccc(-c2cnc(N)cn2)c(F)c1` [Example 170, (R)-4′-(5-Aminopyrazin-2-yl)-N-(1-cyanopropan-2-yl)-3′-fluoro-[1,1′-biphenyl]-2-sulfonamide], for which, in experiment [1], the IC50 was determined as 12 nM. In addition, the Ki at human FLAP (setting [2]) amounted to 1 nM.

Broadly, the IC50 is the midpoint of a concentration-inhibition curve. Usually Ki stands for the equilibrium dissociation constant of an inhibitor or competing ligand from its target.
